# Experimental data as given in patent US20220273768A1 (The George Washington University, priority 2019, published 2022).
# Tested on: DIO C57BL/6J mice
# Settings: mouse, in vivo
substance,measurement,value
leptin,minute ventilation during wakefulness,1.8 ± 0.6 mL/min/g
